# Reference: publication PMC12289066, “Identification of glutathione transferase (GST P1) inhibitors via a high-throughput screening assay and implications as alternative treatment options for breast cancers” (PLOS One, 2025)
# Protein sequences, listed by entry. Tags and fused reporters are not part of them. Residues count along the entry.
# UniProt P09211, 2-210 limits assumed: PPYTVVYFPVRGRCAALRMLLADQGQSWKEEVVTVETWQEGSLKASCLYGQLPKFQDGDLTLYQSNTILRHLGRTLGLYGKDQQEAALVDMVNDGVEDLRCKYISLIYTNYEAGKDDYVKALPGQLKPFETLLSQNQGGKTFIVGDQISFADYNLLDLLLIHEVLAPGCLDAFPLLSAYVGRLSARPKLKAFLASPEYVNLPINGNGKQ
# Molecular target: T1, GST P1-1 (Homo sapiens, UniProt P09211)
# T1 construct: purchased Sigma-Aldrich
# Test: High-throughput GST P1-1 inhibition assay (384-well screen, CDNB/GSH)
# Type: biochemical
# Experimental: Each drug compound was added to the respective well at a volume of 80 nL of 10 mM stock solution in DMSO, yielding a final compound concentration of 10 μM and a final DMSO concentration of 0.1%. Each plate’s first and last two columns were used as negative (no compound added – 80 nL per well of DMSO) and positive (80 nL of EA added with a final concentration of 50 μM) controls, respectively. The Gyger Certus Flex dispenser was set up using a freshly prepared 1 mM of GSH and 20 nM of GST P1-1, pH 7.4, in one syringe and 8 mM CDNB solution in pure ethanol in the other syringe. […] The plates were incubated for 2 h in the dark at 25°C and then the absorbance was of each well recorded on a BioTek Synergy NEO HTS multimode plate reader (Agilent®) at a wavelength of 340 nm.
# The z’factor was calculated for each plate according to Zhang et al.. […] For each plate, the concentration of product was normalized by assigning a score of 0 (0%) to the negative control (average of maximal concentration of product measured in the presence of enzyme without any inhibitor) and a score of 1 (100%) was assigned to the positive control (average minimal concentration of product measured in the presence of enzyme with the reference inhibitor, i.e., EA). The experiment was performed in duplicate and the score for each drug compound was calculated as an average ± standard deviation. […]
smiles,measurement,value
Cc1ccc(-c2ccc(F)cc2COc2ccc(CCC(=O)O)cc2)cc1 [TUG-891],Score,0.783
